Source: patent US20250195530A1, “POLQ INHIBITORS” (ASTRAZENECA AB, priority 2022, published 2025)

Chains of the proteins cited; added tags and fusions are not shown. Residues count along the entry.
UniProt O75417, 1780-2590: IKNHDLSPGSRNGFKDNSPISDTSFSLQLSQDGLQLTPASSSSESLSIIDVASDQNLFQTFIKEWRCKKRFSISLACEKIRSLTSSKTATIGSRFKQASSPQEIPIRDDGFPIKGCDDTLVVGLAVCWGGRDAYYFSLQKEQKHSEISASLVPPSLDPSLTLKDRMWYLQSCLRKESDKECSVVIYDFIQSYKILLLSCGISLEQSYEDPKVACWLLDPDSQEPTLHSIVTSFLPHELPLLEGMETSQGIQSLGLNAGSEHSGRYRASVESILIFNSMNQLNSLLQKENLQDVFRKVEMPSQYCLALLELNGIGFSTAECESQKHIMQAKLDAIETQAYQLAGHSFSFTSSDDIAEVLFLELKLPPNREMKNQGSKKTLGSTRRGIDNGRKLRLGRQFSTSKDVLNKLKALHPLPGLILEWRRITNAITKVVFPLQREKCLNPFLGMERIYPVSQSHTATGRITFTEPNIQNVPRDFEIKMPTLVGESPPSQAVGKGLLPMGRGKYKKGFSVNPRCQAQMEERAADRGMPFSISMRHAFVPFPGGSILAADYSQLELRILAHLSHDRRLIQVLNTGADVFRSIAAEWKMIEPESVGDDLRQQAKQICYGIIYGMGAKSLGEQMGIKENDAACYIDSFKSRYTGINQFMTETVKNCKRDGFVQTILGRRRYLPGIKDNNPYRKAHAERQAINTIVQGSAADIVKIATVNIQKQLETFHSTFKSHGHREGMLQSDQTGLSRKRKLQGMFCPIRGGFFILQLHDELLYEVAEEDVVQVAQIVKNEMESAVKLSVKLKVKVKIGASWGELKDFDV

Target: isolated polymerase domain (I1780-V2590) of DNA polymerase theta (Polθ) (Homo sapiens (Human), UniProt O75417)
Assay: biochemical

IC50	Compound
5.01 nM	CC(CCCOc1cccc(-c2nc3c(OC4(C)CC4)ncnc3n2Cc2cccc(Cl)c2)c1Cl)C(=O)O (single isomer, unassigned) [Example T444, 5-(2-chloro-3-(9-(3-chlorobenzyl)-6-(1-methylcyclopropoxy)-9H-purin-8-yl)phenoxy)-2-methylpentanoic acid]
6.31 nM	CC1(Oc2ncnc3c2nc(-c2ccc(OCCCN4CC[C@@H](O)C4)cc2Cl)n3Cc2cc(C(F)F)ccn2)CC1 [Example T568, (R)-1-(3-(3-chloro-4-(9-((4-(difluoromethyl)pyridin-2-yl)methyl)-6-(1-methylcyclopropoxy)-9H-purin-8-yl)phenoxy)propyl)pyrrolidin-3-ol]
3.98 nM	CNC(=O)Nc1ccc(-c2nc3c(OC4(C)CC4)ncnc3n2Cc2cc(C)ccn2)c(Cl)c1 [Example T66, 1-(3-chloro-4-(6-(1-methylcyclopropoxy)-9-((4-methylpyridin-2-yl)methyl)-9H-purin-8-yl)phenyl)-3-methylurea]
7.94 nM	Cc1ccnc(Cn2c(-c3ccc(N4CCC5(CCN5)CC4)cc3Cl)nc3c(OC4(C)CC4)ncnc32)c1 [Example T586, 8-(2-chloro-4-(1,7-diazaspiro[3.5]nonan-7-yl)phenyl)-6-(1-methylcyclopropoxy)-9-((4-methylpyridin-2-yl)methyl)-9H-purine]
5.01 nM	Cc1ccc(C)c(Cn2c(-c3ccc(OCCC(C)C(=O)O)cc3Cl)nc3c(OC4(C)CC4)ncnc32)c1 (single isomer, unassigned) [Example T572, 4-(3-chloro-4-(9-(2,5-dimethylbenzyl)-6-(1-methylcyclopropoxy)-9H-purin-8-yl)phenoxy)-2-methylbutanoic acid]
12.6 nM	COc1c(Cl)cccc1Cn1c(-c2ccc(OCCC(C)C(=O)O)cc2Cl)nc2c(OC3(C)CC3)ncnc21 (racemic) [Example U3, 4-(3-chloro-4-(9-(3-chloro-2-methoxybenzyl)-6-(1-methylcyclopropoxy)-9H-purin-8-yl)phenoxy)-2-methylbutanoic acid]
7.94 nM	CC(CCOc1ccc(-c2nc3c(OC4(C)CC4)ncnc3n2Cc2c(Cl)cccc2Cl)c(Cl)c1)C(=O)O (racemic) [Example T277, 4-(3-chloro-4-(9-(2,6-dichlorobenzyl)-6-(1-methylcyclopropoxy)-9H-purin-8-yl)phenoxy)-2-methylbutanoic acid]
5.01 nM	CNC(=O)COc1ccc(-c2nc3c(OC4(C)CC4)ncnc3n2Cc2cc(C)ccn2)c(Cl)c1 [Example T118, 2-(3-chloro-4-(6-(1-methylcyclopropoxy)-9-((4-methylpyridin-2-yl)methyl)-9H-purin-8-yl)phenoxy)-N-methylacetamide]
39.8 nM	Cc1ccnc(Cn2c(-c3ccc(N4CCNCC4=O)cc3Cl)nc3c(OC4(C)CC4)ncnc32)c1 [Example T202, 1-(3-chloro-4-(6-(1-methylcyclopropoxy)-9-((4-methylpyridin-2-yl)methyl)-9H-purin-8-yl)phenyl)piperazin-2-one]
5.01 nM	Cc1ccnc(Cn2c(-c3ccc(OCCN4CCC4=O)cc3Cl)nc3c(OC4(C)CC4)ncnc32)c1 [Example T313, 1-(2-(3-chloro-4-(6-(1-methylcyclopropoxy)-9-((4-methylpyridin-2-yl)methyl)-9H-purin-8-yl)phenoxy)ethyl)azetidin-2-one]
3.16 nM	CC1(Oc2ncnc3c2nc(-c2ccc(OCCCC(=O)NS(C)(=O)=O)cc2Cl)n3Cc2cccc(Cl)c2)CC1 [Example T326, 4-(3-chloro-4-(9-(3-chlorobenzyl)-6-(1-methylcyclopropoxy)-9H-purin-8-yl)phenoxy)-N-(methylsulfonyl)butanamide]
6.31 nM	CC(CCOc1ccc(-c2nc3c(OC4(C)CC4)ncnc3n2Cc2ccccc2C2CC2)c(Cl)c1)C(=O)O (racemic) [Example T598, 4-(3-chloro-4-(9-(2-cyclopropylbenzyl)-6-(1-methylcyclopropoxy)-9H-purin-8-yl)phenoxy)-2-methylbutanoic acid]
6.31 nM	Cc1ccnc(Cn2c(-c3ccc(OCC(=O)NCC(F)(F)F)cc3Cl)nc3c(OC4(C)CC4)ncnc32)c1 [Example T154, 2-(3-chloro-4-(6-(1-methylcyclopropoxy)-9-((4-methylpyridin-2-yl)methyl)-9H-purin-8-yl)phenoxy)-N-(2,2,2-trifluoroethyl)acetamide]
794 nM	Cc1nnc(Cn2c(-c3ccc(CC(N)=O)cc3Cl)nc3c(OC4(C)CC4)ncnc32)s1 [Example T1, 2-(3-chloro-4-(9-((5-methyl-1,3,4-thiadiazol-2-yl)methyl)-6-(1-methylcyclopropoxy)-9H-purin-8-yl)phenyl)acetamide]
10 nM	CNC(=O)COc1ccc(-c2nc3c(OC4(C)CC4)ncnc3n2Cc2ncc(C)s2)c(Cl)c1 [Example T28, 2-(3-chloro-4-(6-(1-methylcyclopropoxy)-9-((5-methylthiazol-2-yl)methyl)-9H-purin-8-yl)phenoxy)-N-methylacetamide]
15.8 nM	CCNC(=O)c1ccc(-c2nc3c(OC4(C)CC4)ncnc3n2Cc2cc(C)ccn2)c(Cl)c1 [Example T114, 3-chloro-N-ethyl-4-(6-(1-methylcyclopropoxy)-9-((4-methylpyridin-2-yl)methyl)-9H-purin-8-yl)benzamide]

IC50	Compound
7.94 nM	COc1ccc(Cl)cc1Cn1c(-c2ccc(OCC(C)CC(=O)O)cc2Cl)nc2c(OC3(C)CC3)ncnc21 (racemic) [Example U42, 4-(3-chloro-4-(9-(5-chloro-2-methoxybenzyl)-6-(1-methylcyclopropoxy)-9H-purin-8-yl)phenoxy)-3-methylbutanoic acid]
12.6 nM	Cc1cncc(Cn2c(-c3ccc(OCCN4CCNCC4)cc3Cl)nc3c(OC4(C)CC4)ncnc32)c1 [Example T530, 8-(2-chloro-4-(2-(piperazin-1-yl)ethoxy)phenyl)-6-(1-methylcyclopropoxy)-9-((5-methylpyridin-3-yl)methyl)-9H-purine]
10 nM	Cc1ccnc(Cn2c(-c3ccc(C(=O)N4CCCC4)cc3Cl)nc3c(OC4(C)CC4)ncnc32)c1 [Example T309, (3-chloro-4-(6-(1-methylcyclopropoxy)-9-((4-methylpyridin-2-yl)methyl)-9H-purin-8-yl)phenyl)(pyrrolidin-1-yl)methanone]
7.94 nM	Cc1ccnc(Cn2c(-c3ccc(C(=O)NC4CC(O)C4)cc3Cl)nc3c(OC4(C)CC4)ncnc32)c1 (stereo not shown) [Example T319, 3-chloro-N-(3-hydroxycyclobutyl)-4-(6-(1-methylcyclopropoxy)-9-((4-methylpyridin-2-yl)methyl)-9H-purin-8-yl)benzamide]
6.31 nM	Cc1ccnc(Cn2c(-c3ccc(OCCN4CCNC[C@@H]4C)cc3Cl)nc3c(OC4(C)CC4)ncnc32)c1 [Example T594, (S)-8-(2-chloro-4-(2-(2-methylpiperazin-1-yl)ethoxy)phenyl)-6-(1-methylcyclopropoxy)-9-((4-methylpyridin-2-yl)methyl)-9H-purine]
5.01 nM	CC(COc1ccc(-c2nc3c(OC4(C)CC4)ncnc3n2Cc2cccc(Cl)c2)c(Cl)c1)CC(=O)O (single isomer, unassigned) [Example T295, 4-(3-chloro-4-(9-(3-chlorobenzyl)-6-(1-methylcyclopropoxy)-9H-purin-8-yl)phenoxy)-3-methylbutanoic acid]
7.94 nM	CC(CCOc1ccc(-c2nc3c(OC4(C)CC4)ncnc3n2Cc2ccccc2C(F)F)c(Cl)c1)C(=O)O (single isomer, unassigned) [Example T414, 4-(3-chloro-4-(9-(2-(difluoromethyl)benzyl)-6-(1-methylcyclopropoxy)-9H-purin-8-yl)phenoxy)-2-methylbutanoic acid]
2.51 nM	Cc1ccnc(Cn2c(-c3ccc(C(=O)N4CC5(CNC5)C4)cc3Cl)nc3c(OC4(C)CC4)ncnc32)c1 [Example T428, (3-chloro-4-(6-(1-methylcyclopropoxy)-9-((4-methylpyridin-2-yl)methyl)-9H-purin-8-yl)phenyl)(2,6-diazaspiro[3.3]heptan-2-yl)methanone]
6.31 nM	CC(CCOc1ccc(-c2nc3c(OC4(C)CC4)ncnc3n2Cc2cc(F)cc(F)c2)c(Cl)c1)C(=O)O (racemic) [Example T260, 4-(3-chloro-4-(9-(3,5-difluorobenzyl)-6-(1-methylcyclopropoxy)-9H-purin-8-yl)phenoxy)-2-methylbutanoic acid]
6.31 nM	Cc1ccnc(Cn2c(-c3ccc(CC(=O)N4CC(C)(O)C4)cc3Cl)nc3c(OC4(C)CC4)ncnc32)c1 [Example T470, 2-(3-chloro-4-(6-(1-methylcyclopropoxy)-9-((4-methylpyridin-2-yl)methyl)-9H-purin-8-yl)phenyl)-1-(3-hydroxy-3-methylazetidin-1-yl)ethan-1-one]
5.01 nM	CC1(Oc2ncnc3c2nc(-c2ccc(OCCCC(C)(C)C(=O)O)cc2Cl)n3Cc2ccccc2C#N)CC1 [Example U21, 5-(3-chloro-4-(9-(2-cyanobenzyl)-6-(1-methylcyclopropoxy)-9H-purin-8-yl)phenoxy)-2,2-dimethylpentanoic acid]
5.01 nM	CC1(Oc2ncnc3c2nc(-c2ccc(OCCCOCC(=O)O)cc2Cl)n3Cc2cccc(Cl)c2)CC1 [Example T302, 2-(3-(3-chloro-4-(9-(3-chlorobenzyl)-6-(1-methylcyclopropoxy)-9H-purin-8-yl)phenoxy)propoxy)acetic acid]
63.1 nM	Cc1ccnc(Cn2c(-c3ccc(C(=O)N(C)CC4(O)CC4)cc3Cl)nc3c(OC4(C)CC4)ncnc32)c1 [Example T462, 3-chloro-N-((1-hydroxycyclopropyl)methyl)-N-methyl-4-(6-(1-methylcyclopropoxy)-9-((4-methylpyridin-2-yl)methyl)-9H-purin-8-yl)benzamide]
6.31 nM	Cc1ccnc(Cn2c(-c3ccc(OCCN4CCNC(=O)C4)cc3Cl)nc3c(OC4(C)CC4)ncnc32)c1 [Example T499, 4-(2-(3-chloro-4-(6-(1-methylcyclopropoxy)-9-((4-methylpyridin-2-yl)methyl)-9H-purin-8-yl)phenoxy)ethyl)piperazin-2-one]
15.8 nM	Cc1ccnc(Cn2c(-c3ccc(N4CCC(O)CC4=O)cc3Cl)nc3c(OC4(C)CC4)ncnc32)c1 (racemic) [Example T321, 1-(3-chloro-4-(6-(1-methylcyclopropoxy)-9-((4-methylpyridin-2-yl)methyl)-9H-purin-8-yl)phenyl)-4-hydroxypiperidin-2-one]
